In PubChem BioAssay AID602179 (National Center for Advancing Translational Sciences (NCATS), 2012) one finds activity change, negative = inhibition data, which are given here for 66 compounds.

Protein sequences, listed by entry. Tags and fused reporters are not part of them.
UniProt O75874, whole entry R132H: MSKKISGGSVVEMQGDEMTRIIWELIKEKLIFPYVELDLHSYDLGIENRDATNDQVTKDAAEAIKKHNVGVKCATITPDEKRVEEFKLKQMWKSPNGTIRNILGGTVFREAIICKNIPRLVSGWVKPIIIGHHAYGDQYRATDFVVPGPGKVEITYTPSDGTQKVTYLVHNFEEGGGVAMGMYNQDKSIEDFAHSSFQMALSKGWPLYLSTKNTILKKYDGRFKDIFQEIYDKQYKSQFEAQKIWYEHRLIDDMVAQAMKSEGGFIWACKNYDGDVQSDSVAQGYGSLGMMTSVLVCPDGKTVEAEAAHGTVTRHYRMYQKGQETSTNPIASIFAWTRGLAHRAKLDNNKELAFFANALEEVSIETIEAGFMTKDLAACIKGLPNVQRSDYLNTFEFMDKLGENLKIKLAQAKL

Each structure is given as a SMILES string. This is a selection; strong and weak results do not stand in their true shares. Active and inactive are the calls of the source. Calls follow the shape of the dose curve; as a rule, active = well fitted inhibition curve with a large enough effect; inconclusive = small, poorly fitted or top-dose-only effect; inactive = no such curve, though single readings can be large or run the other way.

The target in this experiment is Isocitrate dehydrogenase [NADP] cytoplasmic (Homo sapiens) (UniProt O75874). Put plainly: qHTS for Inhibitors of mutant isocitrate dehydrogenase 1 (IDH1): qHTS. Also: nearly all actives have a fitted effect of over 65% in size. The settings on record: IDH1-R132H enzyme, NADPH consumption, diaphorase/resazurin fluorescence; at 76.6 µM (top of the series). The text has this:
Unbiased genomic sequencing for 22 glioma genomes found recurrent mutation of isocitrate dehydrogenase 1 (IDH1) on chromosome 2q33-a gene encoding the cytosolic isoform of IIDH1associated with the tricarboxylic acid cycle (TCA) that catalyzes the oxidative decarboxylation of isocitrate, yielding alpha-ketoglutarate and CO2 via NADP+ to NADPH conversion. Subsequent studies confirmed the recurrent IDH mutations in up to 70% of secondary gliomas and in 10% of AML cases. […] This in effect defines IDH1 as an oncogene, and provides an extraordinary opportunity to discover chemical probes against mutant IDH1 that may translate into much needed new therapies for glioma and AML patients. […] NIH Chemical Genomics Center [NCGC] NIH Molecular Libraries Probe Centers Network [MLPCN] MLPCN Grant: DA032129 Assay Submitter (PI): Lenny Dang, Agios Pharmaceuticals
IDH1-R132H (0.5 ug/mL) was dispensed into black, solid-bottom 1536-well plates at 3 uL/well in 20 mM Tris-HCl (pH 7.5), 150 mM NaCl, 10 mM MgCl2, 4 mM beta-ME, and 0.05% protease-free BSA. Then, 23 nL of compounds or DMSO were delivered to each well using a pin tool. A pre-read was run on the Viewlux to identify fluorescent compounds (540 nm excitation filter, 598 nm emission filter, bodipy mirror and 2 second exposure). After 30 minutes of incubation with compound, 3 uL of substrate mix were dispensed (0.016 mM NADPH, 2 mM alpha-KG, 20 mM Tris-HCl (pH 7.5), 150 mM NaCl, 10 mM MgCl2, and 0.05% protease-free BSA). Plates were spun for 1 min at 1000xg and incubated at room temperature for 80 min. Then 1.5 uL of each detection reagent component for the coupling system were added (0.12 mg/mL diaphorase and 0.072 mM resazurin, each in 20 mM Tris-HCl (pH 7.5), 150 mM NaCl, 10 mM MgCl2, and 0.05% protease-free BSA ) The protein, substrate and two detection components were maintained at 4 °C throughout the screen. Additionally, the substrate and resazurin reagents were protected from light. The plates were measured on an Envision plate reader for fluorescence signal using a 540 nm excitation filter and 590 nm emission filter with 10 flashes. 1x and 0x (no-enzyme) IDH1-R132H enzyme control were used to normalize %Activity of identified inhibitors; 0x enzyme values corresponded to 100% Activity (full inhibition), while 1x IDH1-R132H enzyme values were used to normalize 0%Activity (no inhibition). Concentration-response curves were fitted to the signals arising from the resulting fluorescence. The concentration-effect curves were then classified based on curve quality (r2), response magnitude and degree of measured activity, and compounds were subsequently categorized based on their curve class. […] Keywords: isocitrate dehydrogenase, IDH1, IDH1-R132H, MLSMR, MLPCN, NIH Roadmap, qHTS, NCGC
Turning to `c1ccc(CN2CCC(Nc3ccccc3)CC2)cc1`, the activity change, negative = inhibition is inactive: 2.46%.

In the case of `CCCN1CCC(Nc2cc(OC)cc(OC)c2)CC1`, the activity change, negative = inhibition is inactive: 11.2%.

In the case of `O=C(NCC1(N2CCOCC2)CCCCC1)c1ccccc1`, the activity change, negative = inhibition was inactive: -9.23%.

On to `Cc1cc(N(CCCl)CCCl)ccc1C=O`, for which the activity change, negative = inhibition was inactive: 4.67%.

For `CN(C)C1(CNC(=O)c2cccc(C#N)c2)CCCCC1`, the activity change, negative = inhibition was inactive: 1.47%.

Regarding `CC(C)(C)OC(=O)N1CCC(N(C(=O)c2ccccc2)c2ccc(Cl)cc2)CC1`, the activity change, negative = inhibition was inactive: -1.12%.

On to `O=C(NCC1(N2CCOCC2)CCCCC1)c1ccc([N+](=O)[O-])cc1`, for which the activity change, negative = inhibition is inactive: -1.7%.

On to `N#Cc1ccc(C(=O)NCC2(N3CCCCC3)CCCCC2)cc1`, for which the activity change, negative = inhibition is inactive: 2.72%.

Regarding `O=C(NCC1(N2CCOCC2)CCCCC1)c1ccccc1[N+](=O)[O-]`, the activity change, negative = inhibition was inactive: 16.4%.

For `CCOC(=O)C(CC)C1=NC(C)(C)Cc2ccccc21.O=[N+]([O-])c1cc([N+](=O)[O-])c(O)c([N+](=O)[O-])c1` (stereo unspecified), the activity change, negative = inhibition was inactive: 5.06%.

For the compound `N/C(=N\O)c1c(N)no[n+]1[O-]`, the activity change, negative = inhibition was inactive: -1.83%.

For the compound `CCOC(=O)N1CCC(Nc2ccc(C)cc2)CC1`, the activity change, negative = inhibition was inactive: 8.33%.

Consider `O=C(OC1CN2CCC1CC2)C1c2ccccc2C=Cc2ccccc21` (stereo unspecified), for which the activity change, negative = inhibition is inactive: 1.48%.

As to `CCc1cc(C(=O)NCC2(N3CCCCC3)CCCCC2)sc1C`, the activity change, negative = inhibition was inactive: -11.3%.

Turning to `O=C(O)c1cccc(Nc2c([N+](=O)[O-])cc([N+](=O)[O-])cc2[N+](=O)[O-])c1`, the activity change, negative = inhibition was inactive: 16.1%.

As to `O=C(NCC1(N2CCOCC2)CCCCC1)c1cc(Br)ccc1Cl`, the activity change, negative = inhibition was inactive: 2.25%.

Consider `COc1cc(C(=O)NCC2(N3CCOCC3)CCCCC2)cc(OC)c1C`, for which the activity change, negative = inhibition is inactive: 8.84%.

Take `COc1ccc(C(=O)NCC2(N3CCOCC3)CCCCC2)cc1OC`: the activity change, negative = inhibition was inactive: 0.41%.

Turning to `CCC(CO)(C(=O)OC1CN2CCC1CC2)c1ccccc1` (stereo unspecified), the activity change, negative = inhibition was inactive: -2.71%.

In the case of `COc1cc(C(=O)NCC2(N3CCOCC3)CCCCC2)cc(OC)c1OC`, the activity change, negative = inhibition was inactive: -0.752%.

In the case of `COc1cc(OC)cc(C(=O)NCC2(N3CCOCC3)CCCCC2)c1`, the activity change, negative = inhibition was inactive: 3.74%.

Regarding `COc1cccc(C(=O)N(c2cc(C)cc(C)c2)C2CCN(C(=O)OC(C)(C)C)CC2)c1`, the activity change, negative = inhibition was inactive: -6.9%.

With `CN1CCC(Nc2ccc(Cl)cc2)CC1`, the activity change, negative = inhibition was inactive: -9.28%.

For the compound `CCOc1ncccc1C(=O)NCC1(N2CCOCC2)CCCCC1`, the activity change, negative = inhibition is inactive: 4.24%.

Turning to `CN1CCC(Nc2ccc(F)c(Cl)c2)CC1`, the activity change, negative = inhibition is inactive: 9.29%.

Consider `CCCOc1ccc(C(=O)NCC2(N(C)C)CCCCC2)cc1`, for which the activity change, negative = inhibition was inactive: -3.66%.

On to `CC(C)(C)OC(=O)N1CCC(Nc2ccccc2)CC1`, for which the activity change, negative = inhibition is inactive: 6.15%.

As to `O=C(O)C1(Nc2ccccc2)CCN(Cc2ccccc2)CC1`, the activity change, negative = inhibition was inactive: 1.63%.

Turning to `Cc1ccccc1NC1(C#N)CCN(Cc2ccccc2)CC1`, the activity change, negative = inhibition is inactive: -7.35%.

Take `CCN1CCC(Nc2cccc(F)c2)CC1`: the activity change, negative = inhibition was inactive: 2.29%.

Turning to `CC(C)(C)c1ccc(C(=O)NCC2(N3CCOCC3)CCCCC2)cc1`, the activity change, negative = inhibition is inactive: 21.1%.

Consider `O=C(NCC1(N2CCCCC2)CCCCC1)c1ccco1`, for which the activity change, negative = inhibition is inactive: 1.73%.

Regarding `Cn1c(=O)[nH]cc(N(CCCl)CCCl)c1=O`, the activity change, negative = inhibition is inactive: 0.542%.

For `CN(C)c1ccc(C(=O)NCC2(N3CCCCC3)CCCCC2)cc1`, the activity change, negative = inhibition is inactive: -8.57%.

For the compound `Cc1ccccc1C(=O)NCC1(N(C)C)CCCCC1`, the activity change, negative = inhibition was inactive: 2.58%.

Consider `COc1cc(OC)cc(C(=O)NCC2(N3CCCCC3)CCCCC2)c1`, for which the activity change, negative = inhibition is inactive: 3.72%.

Turning to `CC(=O)N(c1ccccc1)C1CCNCC1`, the activity change, negative = inhibition was inactive: -16.3%.

Regarding `CN(C)C1(CNC(=O)c2ccc(C(C)(C)C)cc2)CCCCC1`, the activity change, negative = inhibition is inactive: 0%.

For `Cc1ccc(NC2(C#N)CCN(Cc3ccccc3)CC2)cc1`, the activity change, negative = inhibition was inactive: 12.8%.

As to `Cc1ccc(C(=O)NCC2(N3CCCCC3)CCCCC2)o1`, the activity change, negative = inhibition was inactive: 1.14%.

`Cc1ccc(Nc2c([N+](=O)[O-])cc([N+](=O)[O-])cc2[N+](=O)[O-])cc1`: the activity change, negative = inhibition is inactive: -1.89%.

Turning to `Fc1ccccc1NC1CCN(Cc2ccccc2)CC1`, the activity change, negative = inhibition was inactive: -0.0294%.

On to `COc1cc(C(=O)NCC2(N(C)C)CCCCC2)ccc1OC(F)F`, for which the activity change, negative = inhibition is inactive: -0.631%.

With `CCOC(=O)N1CCC(Nc2cccc(C)c2)CC1`, the activity change, negative = inhibition was inactive: 0.113%.

With `CCOc1ccc(C)cc1CN(CCCl)CCCl`, the activity change, negative = inhibition is inactive: 0.909%.

For the compound `O=C(NCC1(N2CCOCC2)CCCCC1)c1ccc(Cl)cc1`, the activity change, negative = inhibition is inactive: 4.97%.

Take `O=C1CCN(Cc2ccccc2)CC1`: the activity change, negative = inhibition was inactive: -11.3%.

With `O=C(NCC1(N2CCCCC2)CCCCC1)c1ccc(F)cc1`, the activity change, negative = inhibition was inactive: -12%.

Regarding `O=P1(N(CCCl)CCCl)SCCCS1`, the activity change, negative = inhibition was inactive: 1.65%.

Regarding `CCCCOc1ccc(C(=O)NCC2(N3CCOCC3)CCCCC2)cc1`, the activity change, negative = inhibition is inactive: 4.85%.

For `COc1ccc(NC2CCN(CCc3ccccc3)CC2)c(OC)c1`, the activity change, negative = inhibition was inactive: 10.3%.

On to `CCOC(=O)N1CCC(Nc2ccc(F)cc2)CC1`, for which the activity change, negative = inhibition is inactive: -10.6%.

As for `COc1ccccc1C(=O)NCC1(N2CCOCC2)CCCCC1`, the activity change, negative = inhibition is inactive: -3.66%.

For the compound `O=C(NCC1(N2CCOCC2)CCCCC1)c1cc2ccccc2o1`, the activity change, negative = inhibition is inactive: 4.11%.

As for `O=C(NCC1(N2CCCCC2)CCCCC1)c1ccc(Cl)nc1`, the activity change, negative = inhibition is inactive: -1.12%.

Consider `Cc1cc(C)cc(N(C(=O)c2ccccc2)C2CCN(C(=O)OC(C)(C)C)CC2)c1`, for which the activity change, negative = inhibition was inactive: -2.53%.

`CCOC(=O)N1CCC(Nc2ccc(OC)cc2)CC1`: the activity change, negative = inhibition was inactive: 3.67%.

As for `O=C(OC1CN2CCC1CC2)C1c2ccccc2Oc2ccccc21` (stereo unspecified), the activity change, negative = inhibition was inactive: 7.6%.

Regarding `O=C(NCC1(N2CCCCC2)CCCCC1)c1ccc(Cl)s1`, the activity change, negative = inhibition was inactive: 6.63%.

On to `N#CC1(Nc2ccccc2)CCN(Cc2ccccc2)CC1`, for which the activity change, negative = inhibition is inactive: -3.64%.

As to `O=C1C(O)=C([N+](=O)[O-])C(=O)C(O)=C1[N+](=O)[O-]`, the activity change, negative = inhibition was inactive: -9.15%.

In the case of `COc1ccc(Cl)cc1C(=O)NCC1(N2CCOCC2)CCCCC1`, the activity change, negative = inhibition was inactive: 10.6%.

In the case of `O=C(NCC1(N2CCCCC2)CCCCC1)c1ccc(=O)[nH]c1`, the activity change, negative = inhibition is inactive: 0%.

On to `O=C(NCC1(N2CCCCC2)CCCCC1)c1cccs1`, for which the activity change, negative = inhibition is inactive: 3.32%.

On to `COc1ccc(C(=O)NCC2(N3CCCCC3)CCCCC2)cc1`, for which the activity change, negative = inhibition was inactive: -2.83%.

Turning to `COc1ccc(C(=O)NCC2(N3CCCCC3)CCCCC2)c(OC)c1OC`, the activity change, negative = inhibition was inactive: -11.1%.
